Measured values as given in patent US11271238B2, “Applications of low-cost, thermal and electrochemically stable organic compounds as high performance redox active materials in redox flow batteries” (Utah State University, priority 2018, dated 2022).

Experiment: Aqueous solubility
Assay type: physicochemical
Details: in H2O

Substance: N, N, N, 2, 2, 6, 6-Heptamethylpiperidinyloxy-4-ammonium Chloride [N^Me-TEMPO, reference compound]
- solubility in water: 3.0 m
